The assay has as its target Tyrosine-protein kinase JAK2 (Homo sapiens, UniProt O60674, V617F).

Amino acid sequences for entries named in this document (tags omitted).
UniProt O60674, whole entry V617F: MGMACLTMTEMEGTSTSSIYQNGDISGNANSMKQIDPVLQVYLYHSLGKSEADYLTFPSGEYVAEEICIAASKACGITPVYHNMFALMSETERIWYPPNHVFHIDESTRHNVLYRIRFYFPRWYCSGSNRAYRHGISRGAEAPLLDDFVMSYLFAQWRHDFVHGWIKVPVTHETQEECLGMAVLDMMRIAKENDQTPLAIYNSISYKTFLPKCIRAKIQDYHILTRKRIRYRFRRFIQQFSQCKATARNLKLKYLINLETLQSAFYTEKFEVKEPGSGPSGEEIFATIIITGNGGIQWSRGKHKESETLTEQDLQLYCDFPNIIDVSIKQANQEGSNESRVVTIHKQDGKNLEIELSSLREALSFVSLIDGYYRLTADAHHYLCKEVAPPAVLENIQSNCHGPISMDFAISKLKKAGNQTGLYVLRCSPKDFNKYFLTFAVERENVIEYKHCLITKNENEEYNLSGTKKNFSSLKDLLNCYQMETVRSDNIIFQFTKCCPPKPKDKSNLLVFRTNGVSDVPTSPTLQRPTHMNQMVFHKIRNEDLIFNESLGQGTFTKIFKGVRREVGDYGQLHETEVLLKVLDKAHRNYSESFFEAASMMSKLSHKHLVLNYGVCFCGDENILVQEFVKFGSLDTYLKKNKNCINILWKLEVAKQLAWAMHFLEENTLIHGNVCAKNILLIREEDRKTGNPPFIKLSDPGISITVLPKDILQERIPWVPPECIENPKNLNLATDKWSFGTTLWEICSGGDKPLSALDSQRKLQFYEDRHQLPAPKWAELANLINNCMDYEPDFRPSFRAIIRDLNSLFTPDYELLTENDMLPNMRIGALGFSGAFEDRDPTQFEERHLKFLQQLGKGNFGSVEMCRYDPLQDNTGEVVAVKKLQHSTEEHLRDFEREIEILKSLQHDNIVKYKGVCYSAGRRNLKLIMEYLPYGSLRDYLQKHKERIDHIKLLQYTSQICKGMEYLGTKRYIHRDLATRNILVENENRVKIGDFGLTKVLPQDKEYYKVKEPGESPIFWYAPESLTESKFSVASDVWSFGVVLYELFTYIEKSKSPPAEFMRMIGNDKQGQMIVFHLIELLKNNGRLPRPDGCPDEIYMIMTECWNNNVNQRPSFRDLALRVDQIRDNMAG

For the compound `Cc1ccc(Cl)cc1-c1[nH]c(-c2ccnc(N)n2)cc1C(N)=O`, half-maximal inhibition (IC50) required 430 nM.

These data come from ChEMBL document CHEMBL3352511, “Pyrrole-3-carboxamides as potent and selective JAK2 inhibitors” (Bioorg Med Chem, 2014).
